Experimental data taken from ChEMBL document CHEMBL5727992, “3-((hetero-)aryl)-8-amino-2-oxo-1,3-diaza-spiro-[4.5]-decane derivatives” (2020).

Amino acid sequences for entries named in this document (tags omitted).
UniProt P35372, whole entry, looked up: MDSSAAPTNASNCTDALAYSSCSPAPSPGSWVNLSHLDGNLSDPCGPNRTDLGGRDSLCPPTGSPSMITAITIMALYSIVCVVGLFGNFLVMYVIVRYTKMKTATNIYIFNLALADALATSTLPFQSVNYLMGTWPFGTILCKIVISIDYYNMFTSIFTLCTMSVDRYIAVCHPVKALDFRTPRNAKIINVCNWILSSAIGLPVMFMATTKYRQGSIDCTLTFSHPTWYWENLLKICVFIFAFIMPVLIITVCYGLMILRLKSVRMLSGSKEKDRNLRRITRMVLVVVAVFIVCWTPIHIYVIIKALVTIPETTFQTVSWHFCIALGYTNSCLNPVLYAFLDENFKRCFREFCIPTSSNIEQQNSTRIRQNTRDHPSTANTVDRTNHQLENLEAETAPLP

Assays:
Mu-type opioid receptor = Mu-type opioid receptor (Homo sapiens, UniProt P35372); test: Receptor Binding Assay: MOP: The hMOP receptor binding assay was performed as homogeneous SPA-assay (scintillation proximity assay) using the assay buffer 50 mM TRIS-HCl (pH 7.4) supplemented with 0.052 mg/ml bovine serum albumin (Sigma-Aldrich Co. St. Louis. Mo.). The final assay volume (250 μl/well) included 1 nM of [N-allyl-2.3-3H]naloxone as ligand (PerkinElmer Life Sciences. Inc. Boston. Mass
[1] = Receptor Binding Assay: NOP:The hNOP receptor binding assay was performed as homogeneous SPA-assay (scintillation proximity assay) using the assay buffer 50 mM TRIS-HCl. 10 mM MgCl2. 1 mM EDTA (pH 7.4). The final assay volume (250 μl/well) included 0.5 nM of [leucyl-3H]nociceptin as ligand (PerkinElmer Life Sciences. Inc. Boston. Mass. USA). and either test compound in dilution series or 1 μM unla

## COCCN1C(=O)N(CCC(=O)Nc2cncnc2)C[C@]12CC[C@](c1ccccc1)(N(C)C)CC2
Mu-type opioid receptor
  Ki: 1030 nM
[1]
  Ki: 48.5 nM

## CNC(=O)CCN1C[C@]2(CC[C@](c3ccccc3)(N(C)C)CC2)N(CC2(O)CCC2)C1=O
Mu-type opioid receptor
  Ki: 250 nM
[1]
  Ki: 12 nM

## CN(C)[C@]1(c2ccccc2)CC[C@]2(CC1)CN(CCC(=O)NCc1cnco1)C(=O)N2CC1CCC1
[1]
  Ki: 5.8 nM

## CN(C)[C@]1(c2ccccc2)CC[C@]2(CC1)CN(CC(C)(C)C(N)=O)C(=O)N2CC1(O)CCC1
Mu-type opioid receptor
  Ki: 545 nM
[1]
  Ki: 19.5 nM

## CN[C@]1(c2ccccc2)CC[C@]2(CC1)CN(CCC(=O)NC1COC1)C(=O)N2CC1(O)CCC1
Mu-type opioid receptor
  Ki: 88.5 nM
[1]
  Ki: 112 nM

## COCCCN1C(=O)N(CCC(=O)N2CCNC(=O)C2)C[C@]12CC[C@](c1ccccc1)(N(C)C)CC2
Mu-type opioid receptor
  Ki: 445 nM
[1]
  Ki: 63.5 nM

## COc1cnccc1NC(=O)CCN1C[C@]2(CC[C@](c3ccccc3)(N(C)C)CC2)N(CC2CCC2)C1=O
Mu-type opioid receptor
  Ki: 46.5 nM

## CN(C)[C@]1(c2ccccc2)CC[C@]2(CC1)CN(CCC(=O)Nc1ccccn1)C(=O)N2CC1(O)CCC1
Mu-type opioid receptor
  Ki: 160 nM
[1]
  Ki: 5.6 nM

## COCCCN1C(=O)N(CCC(=O)NCC(N)=O)C[C@]12CC[C@](c1ccccc1)(N(C)C)CC2
Mu-type opioid receptor
  Ki: 210 nM
[1]
  Ki: 101 nM

## CNC1(c2ccccc2)CCC2(CC1)CN(CC(C)(C)C(N)=O)C(=O)N2CC1CCC1 (configuration not stated)
Mu-type opioid receptor
  Ki: 555 nM

## CN(C)[C@]1(c2ccccc2)CC[C@]2(CC1)CN(CC(C)(C)C(N)=O)C(=O)N2
Mu-type opioid receptor
  Ki: 7340 nM
[1]
  Ki: 245 nM

## CN(C)[C@]1(c2ccccc2)CC[C@]2(CC1)CN(CCC(=O)N1C[C@H](O)[C@@H](O)C1)C(=O)N2CC1CCC1
[1]
  Ki: 10.6 nM

## CN(C)[C@]1(c2ccccc2)CC[C@]2(CC1)CN(CC(C)(C)C(N)=O)C(=O)N2CC1CC1
Mu-type opioid receptor
  Ki: 480 nM
[1]
  Ki: 23 nM

## CN(C)[C@]1(c2ccccc2)CC[C@]2(CC1)CN(CC(C)(C)C(N)=O)C(=O)N2CC1COC1
Mu-type opioid receptor
  Ki: 4670 nM
[1]
  Ki: 150 nM

## CN(C)[C@]1(c2ccccc2)CC[C@]2(CC1)CN(CCC(=O)Nc1ccc(S(C)(=O)=O)nc1)C(=O)N2CC1CCC1
Mu-type opioid receptor
  Ki: 43.5 nM

## CN(C)[C@]1(c2ccccc2)CC[C@@]2(CC1)CN(CC(C)(C)C(N)=O)C(=O)N2CC1(O)CCC1
Mu-type opioid receptor
  Ki: 4030 nM
[1]
  Ki: 815 nM

## CN(C)[C@]1(c2cccc(F)c2)CC[C@]2(CC1)CN(CC(C)(C)C(N)=O)C(=O)N2CC1CC1
Mu-type opioid receptor
  Ki: 2480 nM
[1]
  Ki: 12 nM

## CN(C)[C@]1(c2ccccc2)CC[C@@]2(CC1)CN(CC(C)(C)C(N)=O)C(=O)N2
Mu-type opioid receptor
  Ki: 790 nM
[1]
  Ki: 340 nM

## CN(C)[C@]1(c2ccccc2)CC[C@]2(CC1)CN(CC(C)(C)C(N)=O)C(=O)N2CC1CCC1
Mu-type opioid receptor
  Ki: 113 nM

## CN(C)[C@]1(c2ccccc2)CC[C@]2(CC1)CN(CCC(=O)N1C[C@@H](O)[C@@H](O)C1)C(=O)N2CC1CCC1
Mu-type opioid receptor
  Ki: 31 nM
[1]
  Ki: 11.4 nM

## CCN(C)[C@]1(c2ccccc2)CC[C@]2(CC1)CN(CC(C)(C)C(N)=O)C(=O)N2CC1(O)CCC1
Mu-type opioid receptor
  Ki: 2610 nM
[1]
  Ki: 260 nM

## COCCCN1C(=O)N(CCC(=O)NCCO)C[C@]12CC[C@](c1ccccc1)(N(C)C)CC2
Mu-type opioid receptor
  Ki: 395 nM
[1]
  Ki: 116 nM

## COCCCN1C(=O)N(CC(C)(C)C(N)=O)C[C@]12CC[C@](c1ccccc1)(N(C)C)CC2
Mu-type opioid receptor
  Ki: 1190 nM
[1]
  Ki: 130 nM

## COc1ccc(NC(=O)CCN2C[C@]3(CC[C@](c4ccccc4)(N(C)C)CC3)N(CC3CCC3)C2=O)nn1
Mu-type opioid receptor
  Ki: 24.5 nM

## CN(C)[C@]1(c2ccccc2)CC[C@]2(CC1)CN(CC(C)(C)C(N)=O)C(=O)N2CC1(C#N)CCC1
Mu-type opioid receptor
  Ki: 180 nM

## CNC(=O)CCN1C[C@]2(CC[C@@](NC)(c3ccccc3)CC2)N(CC2(O)CCC2)C1=O
Mu-type opioid receptor
  Ki: 1630 nM
[1]
  Ki: 205 nM

## CN(C)[C@]1(c2ccccc2)CC[C@]2(CC1)CN(CCC(N)=O)C(=O)N2CC1(O)CCC1
Mu-type opioid receptor
  Ki: 118 nM

## CN[C@]1(c2ccccc2)CC[C@]2(CC1)CN(CCC(=O)Nc1cccnn1)C(=O)N2CC1(O)CCC1
Mu-type opioid receptor
  Ki: 810 nM
[1]
  Ki: 20 nM

## CN(C)[C@]1(c2ccccc2)CC[C@]2(CC1)CN(CCC(=O)NCCO)C(=O)N2CC1(O)CCC1
Mu-type opioid receptor
  Ki: 160 nM
[1]
  Ki: 18.5 nM

## CN(C)[C@]1(c2ccccc2)CC[C@]2(CC1)CN(CCC(=O)NCC1(O)CCC1)C(=O)N2CC1CCC1
[1]
  Ki: 3.2 nM

## COCCN1C(=O)N(CCC(=O)NCCO)C[C@]12CC[C@](c1ccccc1)(N(C)C)CC2
Mu-type opioid receptor
  Ki: 510 nM
[1]
  Ki: 195 nM

## CN(C)[C@]1(c2ccccc2)CC[C@]2(CC1)CN(CCC(=O)N1CCCC(O)C1)C(=O)N2CC1CCC1 (some centres not stated)
Mu-type opioid receptor
  Ki: 7.6 nM

## CN(C)[C@]1(c2ccccc2)CC[C@]2(CC1)CN(CCC(=O)NC1COC1)C(=O)N2CC1(O)CCC1
Mu-type opioid receptor
  Ki: 74 nM
[1]
  Ki: 11.5 nM

## CN(C)[C@]1(c2ccccc2)CC[C@]2(CC1)CN(CCC(=O)Nc1cccnn1)C(=O)N2CC1(O)CCC1
Mu-type opioid receptor
  Ki: 410 nM

## CN(C)[C@]1(c2ccccc2)CC[C@]2(CC1)CN(CCC(N)=O)C(=O)N2CC1CCC1
Mu-type opioid receptor
  Ki: 69 nM
[1]
  Ki: 5.8 nM

## CN(C)[C@]1(c2ccccc2)CC[C@]2(CC1)CN(CCC(=O)Nc1nccc(O)n1)C(=O)N2CC1(O)CCC1
Mu-type opioid receptor
  Ki: 160 nM

## CN(C)[C@]1(c2ccccc2)CC[C@]2(CC1)CN(CCC(=O)N1CCn3ncnc3C1)C(=O)N2CC1CCC1
Mu-type opioid receptor
  Ki: 49 nM

## COCCCN1C(=O)N(CCC(=O)N2CCC[C@@H]2C(N)=O)C[C@]12CC[C@](c1ccccc1)(N(C)C)CC2
Mu-type opioid receptor
  Ki: 190 nM
[1]
  Ki: 70.5 nM

## COc1ccnc(NC(=O)CCN2C[C@]3(CC[C@](c4ccccc4)(N(C)C)CC3)N(CC3(O)CCC3)C2=O)n1
Mu-type opioid receptor
  Ki: 130 nM

## COCCN1C(=O)N(CC(C)(C)C(N)=O)C[C@]12CC[C@](c1ccccc1)(N(C)C)CC2
Mu-type opioid receptor
  Ki: 815 nM
[1]
  Ki: 230 nM

## CN(C)[C@]1(c2ccccc2)CC[C@]2(CC1)CN(CCC(=O)Nc1ccc(S(C)(=O)=O)cn1)C(=O)N2CC1CCC1
Mu-type opioid receptor
  Ki: 66 nM

## CCN(C)[C@]1(c2ccccc2)CC[C@]2(CC1)CN(CC(C)(C)C(N)=O)C(=O)N2CC1CCC1
Mu-type opioid receptor
  Ki: 910 nM
[1]
  Ki: 19 nM

## COc1cc(NC(=O)CCN2C[C@]3(CC[C@](c4ccccc4)(N(C)C)CC3)N(CC3CCC3)C2=O)ccn1
Mu-type opioid receptor
  Ki: 44.5 nM

## CN(C)[C@]1(c2ccccc2)CC[C@]2(CC1)CN(CCC(=O)Nc1ccncc1)C(=O)N2CC1(O)CCC1
Mu-type opioid receptor
  Ki: 40 nM
[1]
  Ki: 8 nM

## CNC(=O)CCN1C[C@]2(CC[C@](c3ccccc3)(N(C)CC(C)C)CC2)N(CC2CCC2)C1=O
[1]
  Ki: 1200 nM

## CN(C)[C@]1(c2ccccc2)CC[C@]2(CC1)CN(CC(C)(C)C(=O)NCCO)C(=O)N2CC1(O)CCC1
Mu-type opioid receptor
  Ki: 485 nM
[1]
  Ki: 15 nM

## CN(C)[C@]1(c2ccccc2)CC[C@]2(CC1)CN(CCC(=O)Nc1cccnc1)C(=O)N2CC1(O)CCC1
Mu-type opioid receptor
  Ki: 140 nM

## CN(C)[C@]1(c2ccccc2)CC[C@]2(CC1)CN(CCC(=O)NCc1ncco1)C(=O)N2CC1CCC1
Mu-type opioid receptor
  Ki: 8.2 nM

## CN(C)[C@]1(c2ccccc2)CC[C@]2(CC1)CN(CCC(=O)Nc1cnc(C#N)nc1)C(=O)N2CC1(O)CCC1
Mu-type opioid receptor
  Ki: 99.5 nM

## CN(C)[C@]1(c2ccccc2)CC[C@]2(CC1)CN(CC(C)(C)C(=O)NCC(N)=O)C(=O)N2CC1CCC1
Mu-type opioid receptor
  Ki: 64 nM

## CNC(=O)CCN1C[C@]2(CC[C@](c3ccccc3)(N(C)C)CC2)N(CCOC)C1=O
Mu-type opioid receptor
  Ki: 1130 nM
[1]
  Ki: 220 nM

## CCN[C@]1(c2ccccc2)CC[C@]2(CC1)CN(CC(C)(C)C(N)=O)C(=O)N2CC1CCC1
Mu-type opioid receptor
  Ki: 2850 nM
[1]
  Ki: 625 nM

## CN(C)[C@]1(c2ccccc2)CC[C@]2(CC1)CN(CCC(=O)Nc1ncccn1)C(=O)N2CC1(O)CCC1
Mu-type opioid receptor
  Ki: 245 nM
[1]
  Ki: 14.5 nM

## COc1cncc(NC(=O)CCN2C[C@]3(CC[C@](c4ccccc4)(N(C)C)CC3)N(CC3CCC3)C2=O)n1
Mu-type opioid receptor
  Ki: 19 nM

## CN(C)[C@]1(c2ccccc2)CC[C@]2(CC1)CN(CCC(=O)Nc1cncnc1)C(=O)N2CC1(O)CCC1
Mu-type opioid receptor
  Ki: 320 nM

## CN[C@]1(c2ccccc2)CC[C@]2(CC1)CN(CC(C)(C)C(=O)NCC(N)=O)C(=O)N2CC1CCC1
Mu-type opioid receptor
  Ki: 124 nM

## CN(C)[C@]1(c2ccccc2)CC[C@]2(CC1)CN(CC(C)(C)C(=O)N1CCS(=O)(=O)CC1)C(=O)N2CC1(O)CCC1
Mu-type opioid receptor
  Ki: 510 nM
[1]
  Ki: 12 nM

## CN[C@]1(c2ccccc2)CC[C@]2(CC1)CN(CCC(=O)NCCO)C(=O)N2CC1(O)CCC1
Mu-type opioid receptor
  Ki: 1200 nM
[1]
  Ki: 215 nM

## CN(C)C(=O)CCN1C[C@]2(CC[C@](c3cccc(F)c3)(N(C)C)CC2)N(CC2CC2)C1=O
Mu-type opioid receptor
  Ki: 610 nM
[1]
  Ki: 22 nM

## COCCCN1C(=O)N(CCC(=O)NC(C)(C)C(N)=O)C[C@]12CC[C@](c1ccccc1)(N(C)C)CC2
[1]
  Ki: 72.5 nM

## COc1ccc(NC(=O)CCN2C[C@]3(CC[C@](c4ccccc4)(N(C)C)CC3)N(CC3CCC3)C2=O)nc1
Mu-type opioid receptor
  Ki: 25 nM

## CN[C@]1(c2ccccc2)CC[C@]2(CC1)CN(CCC(N)=O)C(=O)N2CC1(O)CCC1
Mu-type opioid receptor
  Ki: 895 nM
[1]
  Ki: 140 nM
